Target: T1, wild type FGFR-4 (Homo sapiens, UniProt P22455)
T1 construct: purchased Carna Biosciences, Inc
Assay: FGFR-4 wild type assay at Km (Caliper mobility shift)
Assay type: biochemical
Conditions: [IC50 for FGFR1]/[IC50 for FGFR4]

By UniProt entry, the sequences of proteins in these tests, tags left out. Residues count along the entry.
UniProt P22455, 22-802: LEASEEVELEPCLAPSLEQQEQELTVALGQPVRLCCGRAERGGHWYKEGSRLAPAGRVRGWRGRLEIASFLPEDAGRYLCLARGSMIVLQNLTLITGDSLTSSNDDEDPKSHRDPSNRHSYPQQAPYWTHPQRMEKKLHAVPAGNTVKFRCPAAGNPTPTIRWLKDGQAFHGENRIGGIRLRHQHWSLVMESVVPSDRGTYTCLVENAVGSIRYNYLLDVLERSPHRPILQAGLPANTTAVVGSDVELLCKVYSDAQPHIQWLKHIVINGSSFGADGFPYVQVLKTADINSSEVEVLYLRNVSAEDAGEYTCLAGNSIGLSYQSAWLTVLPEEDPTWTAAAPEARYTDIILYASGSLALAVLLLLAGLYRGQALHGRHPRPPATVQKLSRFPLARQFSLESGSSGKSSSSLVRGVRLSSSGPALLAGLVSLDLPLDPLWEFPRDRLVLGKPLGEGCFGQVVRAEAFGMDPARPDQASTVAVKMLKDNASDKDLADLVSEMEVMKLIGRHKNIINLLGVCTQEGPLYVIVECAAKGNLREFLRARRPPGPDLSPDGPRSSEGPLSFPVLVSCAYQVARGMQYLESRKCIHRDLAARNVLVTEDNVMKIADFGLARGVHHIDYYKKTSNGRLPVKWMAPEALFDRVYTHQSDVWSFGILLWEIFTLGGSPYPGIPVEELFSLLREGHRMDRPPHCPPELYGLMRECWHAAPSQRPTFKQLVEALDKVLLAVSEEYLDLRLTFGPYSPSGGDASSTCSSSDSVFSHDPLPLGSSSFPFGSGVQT

Row | Compound | Ratio FGFR1/FGFR4
1 | C=CC(=O)Nc1ccccc1Nc1ncc2cc(-c3c(Cl)c(OC)cc(OC)c3Cl)c(=O)n(C)c2c1C [COMPOUND 40, N-(2-((3-(2,6-dichloro-3,5-dimethoxyphenyl)-1,8-dimethyl-2-oxo-1,2-dihydro-1,6-naphthyridin-7-yl)amino)phenyl)acrylamide] | A (the ratio is >500)
2 | C=CC(=O)Nc1cccc(C)c1Nc1ncc2cc(-c3c(Cl)c(OC)cc(OC)c3Cl)cc(F)c2n1 [COMPOUND 34, N-(2-((6-(2,6-dichloro-3,5-dimethoxyphenyl)-8-fluoroquinazolin-2-yl)amino)-3-methylphenyl)acrylamide] | D (the ratio is ≧50 and <100)
